PMC7046293, “Parallel quorum-sensing system in Vibrio cholerae prevents signal interference inside the host” (PLoS Pathogens, 2020)

Biological target: CqsR-LBD (Vibrio cholerae, UniProt Q9KR16)
Assay: biochemical
Parameters: gene VC_1831

NCCO [ethanolamine]
Kd: 478 ± 76 nM
